# Test results reported in patent publication US12472175B2, “Methods of treating venetoclax-resistant acute myeloid leukemia” (OREGON HEALTH & SCIENCE UNIVERSITY, priority 2019, dated 2025).
# Tested on: MOLM-13 and MV4;11 cells with TP53 and BAX KOs
# Assay: Small molecule inhibitor panel screen, changes common to modified MOLM-13 and MV4;11 cells
# Type: cell-based, Human
# Settings: TP53 inactivated MV4;11 and MOLM-13 cells
# Protocol: Small-molecule inhibitors, purchased from LC Laboratories (Woburn, Mass., USA) and Selleck Chemicals (Houston, Tex., USA), were reconstituted in DMSO and stored at −80° C. Inc. Inhibitors were distributed into 384-well plates prepared with a single agent/well in a 7-point concentration series ranging from 10 μM to 0.04 μM for each drug. […] After three days of culture at 37° C. in 5% CO2, MTS reagent (CellTiter96 AQueous One; Promega Madison, Wis., USA) was added, optical density was measured at 490 nm, raw absorbance values were adjusted to a reference blank value, and then used to determine cell viability (normalized to untreated control wells). Prizm software(GraphPad) was used to perform non-linear regression analyses on normalized values for the determination of IC50.
# FIG. 7A. MOLM-13 and MV4;11 cells, transduced with indicated sgRNAs/Cas9 viruses, were screened with a panel of inhibitors targeting various molecular pathways and assessed using the cell survival method described in FIG. 2A.
# FIG. 7B. Analyses of FLT3 inhibitor sensitivities, in MOLM-13 and MV4;11 parental and Crispr-modified cells, as indicated. Drug sensitivity was measured as described in FIG. 2A, with IC50 measured in triplicate.
smiles,measurement,value
CC(C)(C)c1cc(NC(=O)Nc2ccc(-c3cn4c(n3)sc3cc(OCCN5CCOCC5)ccc34)cc2)no1 [quizartinib],sensitivity to FLT3 inhibitors,loss of sensitivity
